US9242009B2, “Compositions and methods to treat neurodegenerative diseases” (The General Hospital Corporation, priority 2012, dated 2016)

What was measured:
[1] = test system: murine primary cortical neurons
[2] = test system: mice challenged with LPS; conditions: mouse, in vivo, ip
[3] = mouse, in vivo, ip

Sodium sulfide [Na2S]
LDH release (cytotoxicity) [1]: markedly increased LDH release | Swimming speed in Morris water-maze test [2]: did not change it | Plasma sulfide levels [3]: but not
